Apparent affinities of Ab-14 variants for a coronavirus HR2 peptide

Target peptide (SARS-CoV-2 spike, HR2 region): PDVDLGDISGINAS

Parent: Ab-14, a human scFv built as VH, the linker GGGGSGGGGSGGGGS, VL. Only the CDRs of the heavy chain vary.
VH: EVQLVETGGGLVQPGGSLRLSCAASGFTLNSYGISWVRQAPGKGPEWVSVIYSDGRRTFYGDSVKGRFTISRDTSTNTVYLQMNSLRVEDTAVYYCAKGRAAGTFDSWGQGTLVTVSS
VL: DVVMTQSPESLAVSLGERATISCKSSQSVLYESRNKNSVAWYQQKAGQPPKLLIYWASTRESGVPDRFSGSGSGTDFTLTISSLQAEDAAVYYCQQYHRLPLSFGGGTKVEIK

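These sequences belong to a second round, designed from the earlier measurements on random variants of the parent. Their group label is 14H_En_Gibbs (En: ensemble of fine-tuned language models; Gibbs: Gibbs sampling). Affinity was read by AlphaSeq, a pooled yeast mating assay with surface-displayed partners. The frequency of each diploid, read from paired DNA barcodes, reflects how well the two displayed proteins bind. Each replicate has its own calibration line, from reference interactions of the BCL2 family. There are six technical replicates.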

Sequences are complete VH domains.
Affinities are written as log10 Kd with Kd in nM; a lower number is a better binder.
The mean shown is taken over the replicates in which the pair was detected.
A pair that was not seen in that replicate is written "ND"; this usually means weak binding, but a binder can also be missed.
In the paper, a design with two or fewer of six values counts as a poor binder.
A sequence measured in both rounds can read differently, since the two assays cover different ranges.
Three control strains display no target. For all heavy chain designs, 1% of the pairings with them gave a signal, with a median of 2.08 and one signal in twenty below 0.84, so weak values seen in few replicates may be background. The control count says in how many pairings with the empty strains this scFv gave a signal, with their mean in brackets.

{"VH": "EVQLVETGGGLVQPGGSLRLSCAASGFSFNEYGISWVRQAPGKGPEWVSVIYADGKRTAYANNVKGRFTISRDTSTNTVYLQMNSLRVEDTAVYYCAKGGKDAAFDIWGQGTLVTVSS", "replicates, log10 nM": "ND ND 2.84 ND 3.12 ND", "mean, log10 nM": "2.98", "empty controls": "1/18 (1.29)"}
{"VH": "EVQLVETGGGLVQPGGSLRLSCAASGFEIEEYGISWVRQAPGKGPEWVSVIYADGQRKSYINSVKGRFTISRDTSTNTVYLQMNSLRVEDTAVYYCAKGQVNVTGMYWGQGTLVTVSS", "replicates, log10 nM": "ND ND ND ND ND ND", "mean, log10 nM": "ND", "empty controls": "0/18"}
{"VH": "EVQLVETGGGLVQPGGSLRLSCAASKFDIEEYGISWVRQAPGKGPEWVSVIYADGERTSYSNAVKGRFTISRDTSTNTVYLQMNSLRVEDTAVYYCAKGNQGGTFNTWGQGTLVTVSS", "replicates, log10 nM": "ND ND ND ND 1.65 0.52", "mean, log10 nM": "1.08", "empty controls": "0/18"}
{"VH": "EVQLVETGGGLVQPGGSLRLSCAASGFALNEYGISWVRQAPGKGPEWVSVIYADGFRRSYIDKVKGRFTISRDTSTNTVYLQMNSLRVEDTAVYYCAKGHIAGEFSVWGQGTLVTVSS", "replicates, log10 nM": "ND ND ND ND ND ND", "mean, log10 nM": "ND", "empty controls": "0/18"}
{"VH": "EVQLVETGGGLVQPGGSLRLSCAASGYDLDDYGISWVRQAPGKGPEWVSVIYADGKRTSYAEDVKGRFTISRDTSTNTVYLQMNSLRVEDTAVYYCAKGNIGGSLSNWGQGTLVTVSS", "replicates, log10 nM": "ND ND ND ND ND ND", "mean, log10 nM": "ND", "empty controls": "2/18 (2.25)"}
{"VH": "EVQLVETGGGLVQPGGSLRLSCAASGMSIGEYGISWVRQAPGKGPEWVSVIYADGERTNYASNFKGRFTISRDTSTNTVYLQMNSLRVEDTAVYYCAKGVHAGTFDVWGQGTLVTVSS", "replicates, log10 nM": "ND 0.25 0.08 -0.75 ND -0.20", "mean, log10 nM": "-0.15", "empty controls": "0/18"}
{"VH": "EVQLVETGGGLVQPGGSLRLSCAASGKGLDEYGVSWVRQAPGKGPEWVSVIYADGVRKSYVDDVKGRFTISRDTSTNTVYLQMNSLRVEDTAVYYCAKGGIAGNFLYWGQGTLVTVSS", "replicates, log10 nM": "ND ND ND ND ND ND", "mean, log10 nM": "ND", "empty controls": "0/18"}
{"VH": "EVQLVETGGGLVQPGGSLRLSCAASGFDLDQYGISWVRQAPGKGPEWVSVIYADGMRAGYADSVKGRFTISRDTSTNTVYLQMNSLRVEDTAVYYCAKGHWGGKFLMWGQGTLVTVSS", "replicates, log10 nM": "ND ND ND ND ND ND", "mean, log10 nM": "ND", "empty controls": "0/18"}
{"VH": "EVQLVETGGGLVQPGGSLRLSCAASGMDLEEYGISWVRQAPGKGPEWVSVIYADGLRSAYVDSVKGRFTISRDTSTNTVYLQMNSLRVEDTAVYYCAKGGVGDYDFVWGQGTLVTVSS", "replicates, log10 nM": "ND ND 2.86 3.53 ND ND", "mean, log10 nM": "3.19", "empty controls": "1/18 (2.17)"}
{"VH": "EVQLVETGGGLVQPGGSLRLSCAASGFSIDEYGISWVRQAPGKGPEWVSVIYADGNRSAYIDAVKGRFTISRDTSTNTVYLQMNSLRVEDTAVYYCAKGNYGSDFLEWGQGTLVTVSS", "replicates, log10 nM": "ND ND ND ND ND ND", "mean, log10 nM": "ND", "empty controls": "0/18"}
{"VH": "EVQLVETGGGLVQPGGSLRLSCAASGDGLQEYGISWVRQAPGKGPEWVSVIYADGFRTSYANDVKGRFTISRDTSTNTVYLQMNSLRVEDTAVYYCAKGTAAGGFMVWGQGTLVTVSS", "replicates, log10 nM": "ND ND ND ND ND ND", "mean, log10 nM": "ND", "empty controls": "0/18"}
{"VH": "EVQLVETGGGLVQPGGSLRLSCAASGFNLDEYGVSWVRQAPGKGPEWVSVIYADGMRSMYADSVKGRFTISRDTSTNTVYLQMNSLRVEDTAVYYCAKGGISGWFFIWGQGTLVTVSS", "replicates, log10 nM": "ND ND ND ND ND ND", "mean, log10 nM": "ND", "empty controls": "0/18"}
{"VH": "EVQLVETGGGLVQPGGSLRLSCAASGYDLNEYGISWVRQAPGKGPEWVSVIYADGKRVSYAESVKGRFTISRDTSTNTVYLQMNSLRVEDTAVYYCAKGNFIGKVADWGQGTLVTVSS", "replicates, log10 nM": "ND ND ND ND ND ND", "mean, log10 nM": "ND", "empty controls": "1/18 (1.11)"}
{"VH": "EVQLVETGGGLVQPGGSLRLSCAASGFDIEEYGISWVRQAPGKGPEWVSVIYADGLRQYYKDNFKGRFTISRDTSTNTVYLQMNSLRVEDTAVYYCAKGWNDGTIDVWGQGTLVTVSS", "replicates, log10 nM": "ND ND ND ND ND ND", "mean, log10 nM": "ND", "empty controls": "0/18"}

Data: MIT Lincoln Laboratory AlphaSeq set, Li et al. 2023, doi:10.1038/s41467-023-39022-2, as distributed in FLAb.